Experimental data: ChEMBL document CHEMBL3046915, “Synthesis and evaluation of -opioid receptor agonistic activity and antinociceptive effect of novel morphine analogues, 7-phenyl-6,14-endo-etheno-tetrahydrothebaine with substituted o-, m- and p-amino group” (2011)

The chains behind the UniProt entries cited, without tags or fusion partners.
UniProt P41145, whole entry: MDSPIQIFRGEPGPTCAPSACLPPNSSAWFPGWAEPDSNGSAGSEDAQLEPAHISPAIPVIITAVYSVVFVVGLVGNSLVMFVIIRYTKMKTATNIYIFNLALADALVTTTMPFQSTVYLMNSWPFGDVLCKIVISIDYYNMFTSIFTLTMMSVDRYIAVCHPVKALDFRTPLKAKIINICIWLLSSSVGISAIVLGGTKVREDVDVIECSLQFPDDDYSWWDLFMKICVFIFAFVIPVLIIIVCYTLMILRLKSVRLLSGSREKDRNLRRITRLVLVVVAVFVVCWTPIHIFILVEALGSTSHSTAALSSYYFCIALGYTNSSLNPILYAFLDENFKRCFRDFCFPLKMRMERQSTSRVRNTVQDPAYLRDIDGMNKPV
UniProt P41144, whole entry: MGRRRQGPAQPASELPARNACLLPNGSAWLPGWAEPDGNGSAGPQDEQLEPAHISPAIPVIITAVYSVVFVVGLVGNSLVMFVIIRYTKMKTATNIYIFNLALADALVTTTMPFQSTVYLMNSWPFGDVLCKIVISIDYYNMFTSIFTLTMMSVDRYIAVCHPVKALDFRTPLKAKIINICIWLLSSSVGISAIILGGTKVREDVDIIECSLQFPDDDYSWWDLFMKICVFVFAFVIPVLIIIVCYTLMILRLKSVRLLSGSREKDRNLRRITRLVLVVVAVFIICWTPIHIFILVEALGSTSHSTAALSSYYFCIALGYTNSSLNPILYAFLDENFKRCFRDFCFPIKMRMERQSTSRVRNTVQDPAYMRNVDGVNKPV

Legend:
[1] = biological target: Kappa-type opioid receptor (Homo sapiens, UniProt P41145); assay: Displacement of [3H]-diprenorphine from kappa opioid receptor (unknown origin) expressed in CHO cells after 30 min by liquid scintillation counting
[2] = biological target: Kappa-type opioid receptor (Cavia porcellus, UniProt P41144); assay: Intrinsic activity at kappa opioid receptor in Oryctolagus cuniculus (rabbit) vas deferens assessed as inhibition of electrically evoked contraction after 15 min in presence of nor-BNI

COc1ccc2c3c1O[C@H]1[C@@]4(OC)C=C[C@@]5(C[C@@H]4c4cccc(N)c4)[C@@H](C2)N(C)CC[C@]315
Ki [1]: 16 µM

COc1ccc2c3c1O[C@H]1[C@@]4(OC)C=C[C@@]5(C[C@@H]4c4ccc(N)cc4)[C@@H](C2)N(C)CC[C@]315
pA2 [2]: 8.39
Ki [1]: 7.89 µM

COc1ccc2c3c1O[C@H]1[C@@]4(OC)C=C[C@@]5(C[C@@H]4c4ccccc4N)[C@@H](C2)N(C)CC[C@]315
Ki [1]: 9.91 µM
